ChEMBL document CHEMBL5113527, “First-in-Class Hydrazide-Based HDAC6 Selective Inhibitor with Potent Oral Anti-Inflammatory Activity by Attenuating NLRP3 Inflammasome Activation” (J Med Chem, 2022)

The chains behind the UniProt entries cited, without tags or fusion partners. Where a name states a change or a piece, a line headed by the entry shows the natural chain unless it says otherwise.
UniProt P56524: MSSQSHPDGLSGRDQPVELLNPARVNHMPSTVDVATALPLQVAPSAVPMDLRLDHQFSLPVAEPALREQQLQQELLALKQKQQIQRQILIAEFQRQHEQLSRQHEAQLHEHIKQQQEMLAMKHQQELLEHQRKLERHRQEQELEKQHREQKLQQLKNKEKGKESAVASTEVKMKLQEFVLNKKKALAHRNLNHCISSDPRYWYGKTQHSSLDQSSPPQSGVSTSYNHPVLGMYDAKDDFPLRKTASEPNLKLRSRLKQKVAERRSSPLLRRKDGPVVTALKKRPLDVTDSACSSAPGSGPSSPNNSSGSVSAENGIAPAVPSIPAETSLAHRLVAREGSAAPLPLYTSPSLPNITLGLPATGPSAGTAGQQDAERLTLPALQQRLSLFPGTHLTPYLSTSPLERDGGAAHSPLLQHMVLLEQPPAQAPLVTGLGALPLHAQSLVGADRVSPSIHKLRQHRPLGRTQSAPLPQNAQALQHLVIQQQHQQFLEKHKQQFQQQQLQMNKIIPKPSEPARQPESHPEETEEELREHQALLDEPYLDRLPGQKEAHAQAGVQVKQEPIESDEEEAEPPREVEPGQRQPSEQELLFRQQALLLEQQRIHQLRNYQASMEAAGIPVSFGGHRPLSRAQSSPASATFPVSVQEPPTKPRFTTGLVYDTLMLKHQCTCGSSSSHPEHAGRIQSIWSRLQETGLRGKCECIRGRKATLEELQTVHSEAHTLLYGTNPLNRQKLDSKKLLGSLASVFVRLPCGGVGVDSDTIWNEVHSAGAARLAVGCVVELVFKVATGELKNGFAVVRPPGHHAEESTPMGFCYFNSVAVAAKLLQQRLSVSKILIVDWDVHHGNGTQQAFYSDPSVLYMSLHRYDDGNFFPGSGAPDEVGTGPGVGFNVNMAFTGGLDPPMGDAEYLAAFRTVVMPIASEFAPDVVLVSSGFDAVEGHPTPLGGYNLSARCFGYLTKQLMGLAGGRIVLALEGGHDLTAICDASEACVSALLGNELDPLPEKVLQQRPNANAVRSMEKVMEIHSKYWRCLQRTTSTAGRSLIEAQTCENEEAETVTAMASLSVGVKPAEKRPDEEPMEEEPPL

Molecular target: Histone deacetylase 4 (Homo sapiens, UniProt P56524)
Test: Inhibition of recombinant HDAC4 (unknown origin) using Boc-Lys (trifluoroacetyl) AMC as substrate preincubated for 1 hr followed by substrate addition and measured after 2 hrs by fluorescence based microplate reader analysis

IC50: > 5 µM
SMILES: CN1CCc2c(c3ccccc3n2Cc2ccc(C(=O)NO)cc2)C1 [TUBASTATIN A]
